# FGF22 binding: binders of recombinant human FGF22 by thermal shift | Q9HCT0 | SYPRO orange fluorescence; percent of sucrose octasulfate shift, DMSO zero | activity (Tm shift, normalised), % at 9.99 µM | 340,000 tested, 1.5% active | AID 651658;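 active = mean Tm shift, scaled 0 neutral to 100 positive control, at about 1.3% or above, every replicate too, limit read from the data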
# Yeast UUG start: alters start codon recognition fidelity in yeast; AID 602363; activity score, % at 18.7 µM; 350,000 tested, 0.13% active; S. cerevisiae UUG-firefly luciferase reporter, luminescence/redox ratio;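 active means replicate mean at a twofold rise or more, about +100% in these data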;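 further: firefly luciferase made from a UUG start codon reports start codon fidelity; reporter light over untreated wells divided by growth signal over untreated wells; some hits fall short of that in this replicate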
# PDI turbidity: inhibitors of human protein disulfide isomerase | P07237 | PDI insulin aggregation turbidity, A650, 90 min | inhibition, % at 10 µM | 350,000 tested, 0.052% active | AID 588391;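 active = mean inhibition across replicates of 30% or more, whatever share of single replicates reach that level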
# PglD DTNB: inhibitors of Campylobacter jejuni PglD acetyltransferase; purified PglD enzyme, DTNB colorimetric CoA detection; inhibition, % at 12.5 µM; 360,000 tested, 0.098% active; AID 602405; in the data active = inhibition above about 16%, passing the limit was not always enough
# ARNT TACC3 PPI: disruptors of human ARNT/TACC3 interaction. inhibition, % at 9.99 µM. AlphaScreen His-ARNT PAS-B/GST-TACC3 binding, luminescence; TACC3 fragment carries E629A point mutation. 390,000 tested, 0.66% active;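 active = mean inhibition of replicates at least 50% and at least half of replicates each reaching 50%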;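 also: 0% = complete ARNT plus TACC3 wells and 100% = ARNT alone without TACC3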
# ERp5 block: inhibitors of human ERp5; Q15084; ERp5 insulin aggregation, absorbance 650 nm, 90 min; inhibition, % at 9.99 µM; 350,000 tested, 0.05% active;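 active = mean replicate inhibition above about 25%, with every replicate also reaching it, limit read from the data, passing the limit was not always enough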
# Starred values were filed as active, the others as inactive; nt = no result. In the library only some 1.9% were active in any assay of this set; here they are far more common.
1	CC(C)c1csc(CN2CCN(Cc3ccccc3)C(CCO)C2)n1 (stereo not given)
2	CCOc1ccc(CN2CCN(Cc3nc(C(C)C)cs3)CC2CCO)cc1 (stereo not given)
3	Cc1ccc(-c2cnc3c(c2)C(=O)N([C@H](C)CO)C[C@@H](C)[C@H](CN(C)C(=O)c2cccc(F)c2)O3)cc1
4	N#C[C@@H]1[C@@H](c2ccccc2C2=CCCCC2)[C@@H](CO)N1C(=O)NC1CCCCC1
5	Cc1cc(CSc2ccccc2)ccc1NC(=O)COc1ccccc1C
6	CC(=O)N1CCN(c2ccccc2NC(=O)COc2ccccc2C)CC1
7	Cc1ccccc1OCC(=O)Nc1ccccc1N1CCC(C)CC1
8	Cc1ccccc1OCC(=O)Nc1ccccc1-c1ccccc1NC(=O)COc1ccccc1C

Compound,1,2,3,4,5,6,7,8
FGF22 binding,0,43*,0,nt,44*,0,nt,nt
Yeast UUG start,7,nt,6,nt,-12,0,nt,-1
PDI turbidity,10,nt,nt,nt,5,4,9,-13
PglD DTNB,1,nt,-1,nt,nt,3,nt,-3
ARNT TACC3 PPI,2,nt,-11,nt,-8,0,45*,38
ERp5 block,-2,0,5,-4,1,-5,10,nt

# Quoted from the listing:
# PDI turbidity result of entry 1 → 10
# ARNT TACC3 PPI result of entry 5 → -8

# The results go on:
9	CCOc1ccccc1-n1c(SCC(N)=O)nnc1-c1ccc(O)cc1
10	COc1ccccc1Nc1nc2cc(C)ccc2cc1C#N
11	[N-]=[N+]=Nc1ccccc1C[C@]1(C(=O)N2CCCCC2)N=C(c2ccc(OCCCO)cc2)O[C@H]1c1ccccc1
12	COc1ccc2c3c([nH]c2c1)[C@@H](CO)N(C)CC31CN(S(=O)(=O)c2cn(C)cn2)C1
13	CC1O[C@@H](OCC2O[C@@H](Oc3cc(O)c4c(c3)OC(c3ccc(O)cc3)CC4=O)[C@H](O)[C@@H](O)[C@@H]2O)[C@H](O)[C@H](O)[C@H]1O (stereo not given in full)
14	O=C1C[C@H](c2ccc(O)cc2)Oc2cc(O[C@@H]3O[C@H](CO)[C@@H](O)[C@H](O)[C@H]3O)cc(O[C@@H]3O[C@H](CO)[C@@H](O)[C@H](O)[C@H]3O)c21
15	C[C@@H]1CN([C@@H](C)CO)C(=O)c2cc(NC(=O)Cc3ccccc3)ccc2O[C@@H](C)CCCCO[C@@H]1CN(C)C(=O)CCCN(C)C
16	COc1ccc(C=C2CS(=O)(=O)CC(=Cc3ccc(OC)cc3)C2=O)cc1

Compound,9,10,11,12,13,14,15,16
FGF22 binding,nt,43*,-1,0,0,0,0,44*
Yeast UUG start,-6,nt,9,nt,-7,-24,nt,-21
PDI turbidity,9,-2,nt,nt,nt,39*,nt,0
PglD DTNB,-1,nt,0,nt,-3,6,nt,-1
ARNT TACC3 PPI,54*,-2,-9,nt,nt,1,nt,nt
ERp5 block,nt,-1,2,1,4,0,-4,5

17	COc1ccc(NC(=O)N(C)C[C@H]2Oc3ccc(NC(=O)Nc4ccc(C(F)(F)F)cc4)cc3CC(=O)N([C@@H](C)CO)C[C@@H]2C)cc1
18	CC(=O)c1ccc(OCc2cc(C(=O)N3CCCCC3c3cccnc3)no2)cc1 (stereo not given)
19	Cn1cnnc1Sc1ccc(C(=O)OCC(=O)NCC(F)(F)F)cc1[N+](=O)[O-]
20	C=CCNC(=O)COC(=O)c1ccc(Sc2nncn2C)c([N+](=O)[O-])c1
21	CCOc1cc(C(=O)OCC(=O)Nc2cc(C)on2)ccc1OCC(C)C
22	COc1ccc(NS(=O)(=O)c2cccc(C(=O)OCC(=O)Nc3cc(C)on3)c2)cc1
23	CCOc1ccc(C(=O)OCC(=O)Nc2cc(C)on2)cc1OCC
24	Cc1ccc(NS(=O)(=O)c2ccc(C(=O)OCC(=O)Nc3cc(C)on3)cc2)cc1

Compound,17,18,19,20,21,22,23,24
FGF22 binding,0,0,0,44*,44*,nt,nt,43*
Yeast UUG start,-1,-14,-10,nt,nt,-8,-12,-21
PDI turbidity,nt,33*,-1,3,10,-12,-7,15
PglD DTNB,0,-2,3,nt,nt,3,-2,11
ARNT TACC3 PPI,1,-9,-11,-2,-5,nt,-18,-2
ERp5 block,-22,10,2,3,-4,nt,nt,5

25	Cc1cc(NC(=O)COC(=O)[C@@H](NS(=O)(=O)c2ccccc2)C(C)C)no1
26	COc1cccc(C(=O)N2C[C@@H]3[C@H](c4ccccc42)[C@@H](CO)N3C(=O)c2ccc(F)cc2)c1
27	COCCN1CCN(Cc2nc(C3(c4ccc(C)cc4)CCCC3)no2)CC1
28	C[C@@H]1CN([C@H](C)CO)C(=O)c2cc(-c3ccc(C#N)cc3)cnc2O[C@H]1CN(C)C(=O)Nc1ccc(F)cc1
29	CC(=O)c1c(C)[nH]c(C(=O)Nc2cc(F)ccc2C)c1C
30	Cc1cccc(NC(=S)Nn2cnnc2)c1C
31	O=C(NCc1ccco1)C1CC(c2ccc(F)cc2)=NO1 (stereo not given)
32	O=C(NCc1cc(C(F)(F)F)cc(C(F)(F)F)c1)C1CC(c2c(Cl)cccc2Cl)=NO1 (stereo not given)

Compound,25,26,27,28,29,30,31,32
FGF22 binding,43*,1,43*,0,43*,43*,0,0
Yeast UUG start,nt,1,-14,-1,-19,nt,-8,-12
PDI turbidity,1,nt,6,nt,-1,0,3,6
PglD DTNB,nt,-1,-6,-2,-3,nt,-6,-1
ARNT TACC3 PPI,-12,4,7,2,-11,3,26,nt
ERp5 block,3,2,-6,3,6,3,-7,-1

33	O=C(NCc1ccco1)C1CC(c2ccc(Cl)cc2)=NO1 (stereo not given)
34	O=C(NCc1cc(C(F)(F)F)cc(C(F)(F)F)c1)C1CC(c2ccc(C(F)(F)F)cc2)=NO1 (stereo not given)
35	COCC(=O)Nc1ccc2c(c1)[C@H]1C[C@@H](CC(=O)NCC3CC3)O[C@@H](CO)[C@H]1O2
36	Cc1ccc(NC(=O)C2CCCN(S(=O)(=O)c3cnc[nH]3)C2)c(Br)c1 (stereo not given)
37	O=C(Nc1ccc(Br)cc1F)C1CCCN(S(=O)(=O)c2cnc[nH]2)C1 (stereo not given)
38	COc1ccc(/C=C(\NC(=O)c2ccccc2)C(=O)OCC2CCCN3CCCCC23)cc1OC (stereo not given)
39	COc1ccc(/C=C(/NC(=O)c2ccccc2)C(=O)N2CCCC2)cc1OC
40	CN/C=C1\C(=O)C(C)(C)Oc2ccc3ccc(=O)oc3c21

Compound,33,34,35,36,37,38,39,40
FGF22 binding,43*,41*,0,0,2.0*,44*,42,nt
Yeast UUG start,-6,-8,-17,5,-18,nt,4,13
PDI turbidity,-2,-2,nt,-8,-2,-2,-10,-2
PglD DTNB,-3,-3,2,3,0,nt,-8,4
ARNT TACC3 PPI,-11,0,1,-3,-1,-9,-11,4
ERp5 block,5,5,-4,1,-3,2,1,nt

# Sorted by the number under PglD DTNB (low to high): some entries from above
no.	SMILES	Yeast UUG start	PDI turbidity	PglD DTNB	ARNT TACC3 PPI	ERp5 block
31	O=C(NCc1ccco1)C1CC(c2ccc(F)cc2)=NO1 (stereo not given)	-8	3	-6	26	-7
33	O=C(NCc1ccco1)C1CC(c2ccc(Cl)cc2)=NO1 (stereo not given)	-6	-2	-3	-11	5
28	C[C@@H]1CN([C@H](C)CO)C(=O)c2cc(-c3ccc(C#N)cc3)cnc2O[C@H]1CN(C)C(=O)Nc1ccc(F)cc1	-1	nt	-2	2	3

# New compounds follow:
41	CC1(C)Oc2ccc3ccc(=O)oc3c2/C(=C/NNC(N)=S)C1=O
42	O=C(Nc1cccnc1)c1ccc(-c2cc(Cl)ccc2Cl)o1
43	O=C(Nc1cccnc1)c1ccc(-c2ccc(Cl)cc2)o1
44	C[C@H](c1ccccc1)N1C[C@@H](COCc2ccccc2)Oc2cccc(N3CCCCC3)c2S1(=O)=O

Compound,41,42,43,44
FGF22 binding,0,43*,0,0
Yeast UUG start,-27,nt,nt,nt
PDI turbidity,3,-5,-2,nt
PglD DTNB,1,nt,nt,nt
ARNT TACC3 PPI,75*,-4,-5,nt
ERp5 block,-2,2,2,5
